In PMC4469479:

Tested on: NCCc1ccc(O)c(O)c1
Experiment: cells, lysate or membranes
Details: pH 7.4

dDATmfc (Drosophila melanogaster; DEL162-202/DEL602-606/INS607VPRG/L415A/V74A)
Km: 8.2 ± 2.3 µM
